{"source": "patent US20180009876A1", "key": {"[1]": {"target": "MABSELECT SURE® Protein A media", "test": "operating dynamic binding capacity; 20 mM sodium phosphate pH 7.2, 100 mM NaCl; residence time 4 min, 300 cm/h"}, "[2]": {"target": "MABSELECT SURE® Protein A media", "test": "operating dynamic binding capacity; 20 mM sodium phosphate pH 7.2, 50 mM NaCl; residence time 4 min, 300 cm/h"}, "[3]": {"target": "MABSELECT SURE® Protein A media", "test": "operating dynamic binding capacity; 20 mM sodium phosphate pH 7.2, 0 mM NaCl; residence time 4 min, 300 cm/h"}, "[4]": {"target": "ABSOLUTe® High Cap Protein A media", "test": "Protein A resin screen, column loading of adalimumab; 20 mM sodium phosphate, 150 mM NaCl, pH 7.2; table notes residence time τ = 3 min"}, "[5]": {"target": "MABSELECT SURE® Protein A media", "test": "operating dynamic binding capacity; 20 mM sodium phosphate pH 7.2, 150 mM NaCl; residence time 4 min, 300 cm/h"}, "[6]": {"target": "MABSELECT SURE® Protein A media", "test": "dynamic binding capacity at 10% breakthrough; 20 mM sodium phosphate pH 7.2, 0 mM NaCl; residence time 4 min, 300 cm/h"}, "[7]": {"target": "MABSELECT SURE® Protein A media", "test": "dynamic binding capacity at 10% breakthrough; 20 mM sodium phosphate pH 7.2, 150 mM NaCl; residence time 4 min, 300 cm/h"}, "[8]": {"target": "MABSELECT SURE® Protein A media", "test": "dynamic binding capacity at 10% breakthrough; 20 mM sodium phosphate pH 7.2, 100 mM NaCl; residence time 4 min, 300 cm/h"}, "[9]": {"target": "UNOsphere SUPrA™ media", "test": "Protein A resin screen, column loading of adalimumab; 20 mM sodium phosphate, 150 mM NaCl, pH 7.2; residence time 2 min"}, "[10]": {"target": "PROSEP® Ultra Plus Protein A media", "test": "Protein A resin screen, column loading of adalimumab; 20 mM sodium phosphate, 150 mM NaCl, pH 7.2; residence time 2 min"}, "[11]": {"target": "MABSELECT SURE® Protein A media", "test": "Protein A resin screen, column loading of adalimumab; 20 mM sodium phosphate, 150 mM NaCl, pH 7.2; residence time 2 min"}, "[12]": {"target": "MABSELECT SURE® Protein A media", "test": "dynamic binding capacity at 10% breakthrough; 20 mM sodium phosphate pH 7.2, 50 mM NaCl; residence time 4 min, 300 cm/h"}}}
{"substance": "adalimumab (antibody)", "values": [{"measurement": "Operating DBC", "setting": "[1]", "value": 54.9, "unit": "g/L"}, {"measurement": "Operating DBC", "setting": "[2]", "value": 59, "unit": "g/L"}, {"measurement": "Operating DBC", "setting": "[3]", "value": 60.6, "unit": "g/L"}, {"measurement": "Measured DBC (dynamic binding capacity)", "setting": "[4]", "value": 58, "unit": "g/L"}, {"measurement": "Operating DBC", "setting": "[5]", "value": 43.6, "unit": "g/L"}, {"measurement": "DBC @ 10% BT", "setting": "[6]", "value": 51.5, "unit": "g/L"}, {"measurement": "DBC @ 10% BT", "setting": "[7]", "value": 37.1, "unit": "g/L"}, {"measurement": "DBC @ 10% BT", "setting": "[8]", "value": 46.7, "unit": "g/L"}, {"measurement": "Measured DBC (dynamic binding capacity)", "setting": "[9]", "value": 28, "unit": "g/L"}, {"measurement": "Measured DBC (dynamic binding capacity)", "setting": "[10]", "value": 39, "unit": "g/L"}, {"measurement": "Measured DBC (dynamic binding capacity)", "setting": "[11]", "value": 35, "unit": "g/L"}, {"measurement": "DBC @ 10% BT", "setting": "[12]", "value": 50, "unit": "g/L"}]}
